In US20240115726A1, “HYDRAZONE-BASED SAPONIN DERIVATIVES” (priority 2020, published 2024):

Test system: SK-BR3 cells (HER2++/CD71+)
Test: HER2/CD71 targeted cell killing (MTS), Trastuzumab-saponin conjugate titration
Format: cell-based
Conditions: HER2++/CD71+ expressing cells; equivalent concentrations, without CD71mab-saporin

Trastuzumab-(EMCH-SO1861)^4: Trastuzumab conjugated to SO1861-EMCH via thiol-ene reaction at DAR 4
cell killing activity of the conjugate alone: could not induce any cell killing activity
